## AlphaSeq binding of Ab-14 heavy chain variants to a spike HR2 peptide

Reference: Engelhart et al. 2022, doi:10.1038/s41597-022-01779-4. File: FLAb, binding data.

Target: peptide PDVDLGDISGINAS, taken from heptad repeat 2 (HR2) of SARS-CoV-2 spike.

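The parent was found by panning a naive human phage display library on the peptide. AAYL49 was designed without a model: most single CDR substitutions and a random sample of double and triple ones. The assay is AlphaSeq: two haploid yeast populations carry antibody and antigen on their surface. After mating in shaken culture at 30 °C for 16 h, diploids were selected and their barcode pairs sequenced. Scores were corrected for input abundance and mapped to Kd with protein pairs of known affinity run in the same pool. There are three technical replicates.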

Ab-14 is the parent antibody, in scFv form: VH, then three GGGGS repeats, then VL. The light chain is unchanged in all variants.
VH: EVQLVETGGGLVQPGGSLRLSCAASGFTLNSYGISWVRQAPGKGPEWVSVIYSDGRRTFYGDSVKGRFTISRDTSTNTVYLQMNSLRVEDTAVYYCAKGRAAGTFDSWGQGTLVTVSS
VL: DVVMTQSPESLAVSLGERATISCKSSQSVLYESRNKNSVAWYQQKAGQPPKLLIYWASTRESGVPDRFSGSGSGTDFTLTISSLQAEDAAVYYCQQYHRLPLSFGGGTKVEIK

Substitutions are numbered in sequence along the VH above, starting at 1 (not Kabat). The read-out is the apparent dissociation constant on a log10 scale (nM): the lower, the stronger. Replicates are averaged; those with no signal do not enter the mean. Where no diploid with the target was found in any replicate, the entry reads "nd": below detection, most likely a poor binder, though not proof of it. For reference, the parent read 0.65 as the reference entry and 4.11 (one replicate of three) as a member of this library.

changes | mean, log10 nM | replicates with signal
R56C+D106W | 2.00 | 3 of 3
G33L+F59C+K65G | 4.12 | 1 of 3
S53F+D62E+A101R | nd | 0 of 3
T58D+Y60C+S107D | 4.66 | 3 of 3
T28F+Y32Q+Y52I | 2.55 | 1 of 3
T28G+Y32P+I51P | 4.99 | 1 of 3
T28N+A101K+A102S | 0.56 | 3 of 3
I34Y+K65L+D106Q | nd | 0 of 3
I34W+Y52S+G55C | nd | 0 of 3
G26R+T28P+V64G | nd | 0 of 3
T28A+G55F+G99K | nd | 0 of 3
V50G+D62V+D106V | 3.94 | 3 of 3
Y32E+I51Q+G99T | nd | 0 of 3
Y32D+R57A+D62A | nd | 0 of 3
F27V+N30F+G33D | nd | 0 of 3
R56Q+K65A | 1.32 | 3 of 3
I34R+D54R | nd | 0 of 3
N30Y+S53M | nd | 0 of 3
S53Y+R56M | 2.15 | 3 of 3
D62F+R100K | nd | 0 of 3
L29Y+Y32L+K65A | 4.79 | 2 of 3
Y32L+V50Q+T58G | nd | 0 of 3
G33V+F105E+S107T | nd | 0 of 3
L29D+S63N | 4.63 | 3 of 3
S35E+K65L+S107L | nd | 0 of 3
Y52R+T58D+G99A | nd | 0 of 3
F27D+L29W+R100Y | 4.87 | 2 of 3
S31M+S35V | nd | 0 of 3
Y52T+S53K+K65E | 3.88 | 1 of 3
Y32W+G33I+R100G | 4.44 | 3 of 3
F27W+N30S+S53I | nd | 0 of 3
G26A+S31D+F105L | 1.78 | 3 of 3
S35Q+V64Y+S107W | 4.55 | 1 of 3
S31R+G33C+A101Q | nd | 0 of 3
T28M+Y52K+G55F | 3.66 | 3 of 3
G33A+G55F+A101Q | nd | 0 of 3
S35I+Y60A+D62A | 5.60 | 2 of 3
G33I+V50H+V64R | nd | 0 of 3
G26P+I51E+T104L | nd | 0 of 3
G33Q+G61W+V64W | 4.56 | 1 of 3
S53R+D54R+S107T | nd | 0 of 3
F27V+T28V+V64T | nd | 0 of 3
K65D+D106A | 3.63 | 1 of 3
G26R+G33S+F105A | nd | 0 of 3
G26R+S53C+Y60L | 4.21 | 1 of 3
S35K+I51T+D106C | nd | 0 of 3
F27W+N30K+R100K | nd | 0 of 3
F27E+G103Y+D106H | 1.15 | 3 of 3
F27I+V64Q+T104K | nd | 0 of 3
T28I+S35L | nd | 0 of 3

The 7 strongest on average among those seen in every replicate, once more:

changes | mean, log10 nM | replicates with signal
T28N+A101K+A102S | 0.56 | 3 of 3
F27E+G103Y+D106H | 1.15 | 3 of 3
R56Q+K65A | 1.32 | 3 of 3
G26A+S31D+F105L | 1.78 | 3 of 3
R56C+D106W | 2.00 | 3 of 3
S53Y+R56M | 2.15 | 3 of 3
T28M+Y52K+G55F | 3.66 | 3 of 3

Empty control strains, which show no peptide, gave a signal in 15% of pairings with library AAYL49; the median was 4.06 and 95% of these signals were weaker than 2.83. No background was subtracted.